The target in assay [1] is T1, Concanavalin A (ConA) (Canavalia ensiformis, UniProt P02866). To be noted: read-out: KD, surf.
In assay [2] the target is T1, Concanavalin A (ConA). Nature of the assay: Glycan microarray incubated with biotinylated ConA, Cy3-streptavidin fluorescence detection. To be noted: spotted at 50 μM; 100 ng/ml (0.943 nM) biotinylated ConA; Cy3-labelled streptavidin.

Several values for one entry are separate records, joined by “and”; a condition that tells them apart may be missing. Equal values may be shown once. Read-outs that look alike come from different tables or passages of the source.

As a reminder, the Kd is the free concentration of one partner at which half of the binding sites on the other are occupied at equilibrium, for simple one-to-one binding.

For `CCCCC(CC)CNC(=O)C1CC(OCCN=[N+]=[N-])C(O[C@H]2O[C@H](CO)[C@@H](O)[C@H](O)[C@@H]2O)CC1C(=O)NCC(CC)CCCC` (some centres unmarked), the Kd in assay [1] is 5.33 nM. Further, the “interaction with ConA (spot fluorescence intensity, qualitative)” value in assay [2] was “does not seem to interact”. On to `[N-]=[N+]=NCCOC1CC(C(=O)NCc2ccccc2)C(C(=O)NCc2ccccc2)CC1O[C@H]1O[C@H](CO)[C@@H](O)[C@H](O)[C@@H]1O` (some centres unmarked), for which the Kd in assay [1] (glycomimetic printed at 10 μM, ConA 47.2 pM to 469.3 nM, KD,surf obtained as EC50 of sigmoidal fit) worked out at 1.01 nM; in assay [1] (glycomimetic printed at 50 μM, ConA 47.2 pM to 469.3 nM, KD,surf obtained as EC50 of sigmoidal fit), 0.26 nM.

Turning to `[N-]=[N+]=NCCOC1CC(C(=O)NCc2ccc(CO)cc2)C(C(=O)NCc2ccc(CO)cc2)CC1O[C@H]1O[C@H](CO)[C@@H](O)[C@H](O)[C@@H]1O` (some centres unmarked), the dissociation constant (Kd) in assay [1] was 0.43 nM and 0.75 nM.

These data come from patent publication US20160200847A1, “CLICKABLE POLYMERS AND GELS FOR MICROARRAY AND OTHER APPLICATIONS” (priority 2014, published 2016).
